Results published in patent US20140086916A1.

How the values were obtained:
FcγRIIA H [1] = target: FcγRIIA H (UniProt P12318); experiment: fold change of the Table 12 affinities (reference row)
FcγRIIA H [2] = target: FcγRIIA H (UniProt P12318); experiment: FcγR affinity assay 'as described in Example 7', n = 3; printed as Affinity (nM) ± STDEV
[3] = target: FcγRIIIa-V158 (Pichia pastoris produced) (UniProt P08637); experiment: FcγR affinity assay 'as described in Example 7', n = 3; printed as Affinity (nM) ± STDEV; footnote: values > ~5000 nM mean a poor binder
[4] = target: FcγRIIIa-V158 (Pichia pastoris produced) (UniProt P08637); experiment: fold change of the Table 12 affinities
[5] = target: FcγRIIIa-F158 (Pichia pastoris produced) (UniProt P08637); experiment: FcγR affinity assay 'as described in Example 7', n = 3; printed as Affinity (nM) ± STDEV; footnote: values > ~5000 nM mean a poor binder
[6] = target: FcγRIIb (Pichia pastoris produced) (UniProt P31994); experiment: fold change of the Table 12 affinities
[7] = target: FcγRIIIa-F158 (Pichia pastoris produced) (UniProt P08637); experiment: fold change of the Table 12 affinities
[8] = target: FcγRIIb (Pichia pastoris produced) (UniProt P31994); experiment: FcγR affinity assay 'as described in Example 7', n = 3; printed as Affinity (nM) ± STDEV

Anti-TNF IgG1 GS5.0 (wild type Fc) (antibody; other documents disagree on this pair)
fold change in affinity vs Anti-TNF IgG1 GS5.0 (FcγRIIA H [1]): 1 fold | Kd (FcγRIIA H [2]): 1.05 µM

Anti-TNF alpha QM (F243A/V264A/S267E/L328F quadruple mutein) (antibody)
Kd [3]: 5.19 µM | fold change in affinity vs Anti-TNF IgG1 GS5.0 [4]: 98 fold

Anti-TNF alpha QM (F243A/V264A/S267E/L328F quadruple mutein) (antibody; other documents disagree on this pair)
Kd [5]: 8.07 µM | fold change in affinity vs Anti-TNF IgG1 GS5.0 [6]: 21 fold | fold change in affinity vs Anti-TNF IgG1 GS5.0 [7]: 17 fold | Kd [8]: 0.033 µM
